Laboratory results: patent US8263108B2, “Zero-order prolonged release coaxial implants” (Durect Corporation, priority 2001, dated 2012)

Assay: In vitro dissolution of naltrexone or fentanyl coaxial PCL implants
Settings: 10 wt % fentanyl base in the core, PCL membrane; as concentration in the core falls below saturation; FIG. 4

With `CCC(=O)N(c1ccccc1)C1CCN(CCc2ccccc2)CC1` the “release kinetics of fentanyl from coaxial implants” value was “becomes first order”.

Some compounds may have been tested in ways that are not shown here.
